Assay results taken from PMC9913351, “Computational Approach to Drug Penetration across the Blood-Brain and Blood-Milk Barrier Using Chromatographic Descriptors” (Cells, 2023).

Chains of the proteins cited; added tags and fusions are not shown. Residues count along the entry.
UniProt P02769, 25-607: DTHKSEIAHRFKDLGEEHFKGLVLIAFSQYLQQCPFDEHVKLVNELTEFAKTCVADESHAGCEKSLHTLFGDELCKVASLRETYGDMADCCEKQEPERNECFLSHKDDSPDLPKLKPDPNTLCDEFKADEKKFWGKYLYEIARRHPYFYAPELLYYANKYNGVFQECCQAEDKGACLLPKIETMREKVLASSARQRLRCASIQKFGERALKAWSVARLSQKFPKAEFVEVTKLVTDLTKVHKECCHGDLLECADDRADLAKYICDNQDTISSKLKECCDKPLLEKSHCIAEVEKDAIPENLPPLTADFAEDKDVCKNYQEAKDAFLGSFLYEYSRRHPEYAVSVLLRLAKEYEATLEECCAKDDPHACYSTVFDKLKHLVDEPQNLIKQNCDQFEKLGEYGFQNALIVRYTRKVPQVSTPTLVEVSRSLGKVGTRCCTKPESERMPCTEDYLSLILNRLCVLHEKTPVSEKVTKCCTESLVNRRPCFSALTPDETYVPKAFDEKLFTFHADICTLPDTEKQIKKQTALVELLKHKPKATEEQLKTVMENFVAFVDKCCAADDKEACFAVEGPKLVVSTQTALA
UniProt P02768, 25-609: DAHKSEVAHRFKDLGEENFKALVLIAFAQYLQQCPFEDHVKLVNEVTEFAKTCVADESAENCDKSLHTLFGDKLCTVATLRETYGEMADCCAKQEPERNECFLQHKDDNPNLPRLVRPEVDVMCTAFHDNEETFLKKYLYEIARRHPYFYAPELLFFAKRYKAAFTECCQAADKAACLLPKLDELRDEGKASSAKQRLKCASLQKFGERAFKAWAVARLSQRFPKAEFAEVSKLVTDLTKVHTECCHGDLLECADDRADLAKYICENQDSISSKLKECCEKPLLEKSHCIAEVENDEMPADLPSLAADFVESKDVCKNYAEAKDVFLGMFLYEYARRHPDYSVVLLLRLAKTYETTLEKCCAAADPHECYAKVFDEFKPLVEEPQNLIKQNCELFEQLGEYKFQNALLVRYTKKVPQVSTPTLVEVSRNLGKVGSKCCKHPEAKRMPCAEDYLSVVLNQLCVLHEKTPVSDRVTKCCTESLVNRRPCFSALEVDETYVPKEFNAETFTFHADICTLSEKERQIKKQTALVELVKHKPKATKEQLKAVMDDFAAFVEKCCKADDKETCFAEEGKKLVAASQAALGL

What was measured:
bovine serum albumin BSA [1] = molecular target: T1, bovine serum albumin BSA (Bos taurus, UniProt P02769); experiment: RP TLC on silanized RP-2 plates impregnated with bovine serum albumin; assay type: in vitro ADME; conditions: Rf value from RP plate impregnated with 2 mg/mL BSA solution; mobile phase pH 7.4
T1 construct: purchased Sigma Aldrich

bovine serum albumin BSA [2] = molecular target: T1, bovine serum albumin BSA; experiment: NP TLC on silica gel plates impregnated with bovine serum albumin; assay type: in vitro ADME; conditions: for NP: Rf value from NP plate impregnated with 2 mg/mL BSA solution, mobile phase pH 7.4
[3] = set-up: method as in earlier work; conditions: code describing the acid-base properties; source Chembl; cited from earlier work
human serum albumin HSA = molecular target: T2, human serum albumin HSA (Homo sapiens, UniProt P02768); experiment: HPLC on immobilized human serum albumin column (HPLC-HSA); assay type: in vitro ADME; conditions: logarithm of retention factor, mobile phase pH 7.4
T2 construct: 4 × 10 mm
For a/b/n code in this document: key: (-1) - acids; (0) - neutrals; (1) - bases.

Q: Which results are given for `CNCC[C@H](Oc1cccc2ccccc12)c1cccs1` [duloxetine]?
A: RP (bovine serum albumin BSA [1]): 0.53; NP (bovine serum albumin BSA [2]): 0.33

Q: With `Nc1cc(N2CCCCC2)nc(N)[n+]1[O-]` [minoxidil] as the compound, how does the a/b/n code [3] read?
A: Its a/b/n code is 0.

Q: And the NP/C (bovine serum albumin BSA [2]; Rf from BSA-modified NP plate / Rf from clear one (control))?
A: Its NP/C is 0.98.

Q: And the NP (bovine serum albumin BSA [2])?
A: Its NP is 0.42.

Q: For `CC(C)(C)NC[C@H](O)COc1nsnc1N1CCOCC1` [timolol], which “log kHSA” value (human serum albumin HSA) is on record?
A: Its value is -0.88.

Q: For `COc1cccc(C2(O)CCCCC2CN(C)C)c1` (stereo not shown) [tramadol], which RP (bovine serum albumin BSA [1]) is on record?
A: Its RP is 0.64.
